# Data taken from PubChem BioAssay AID652126 (The Scripps Research Institute Molecular Screening Center, 2013).
# Only a part is listed here, and it is no random draw. Active and inactive are the calls of the source.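 Rule for the calls: active = activation above the mean over all tested compounds plus 3 SD (cut at about 0.9% in these data); inactive = the rest.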
# Test system: Nuclear hormone receptor DAF-12 (Strongyloides stercoralis)
# Test: ssDAF-12 driven luciferase reporter activation – cell-based, luminescence, HEK293, GRIP1 co-expression, lit1-tk-luc, primary screen (AID 652126);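 note: 0% = DMSO-only wells and 100% = 3 µM delta7-dafachronic acid wells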
# Settings: HEK293 ssDAF-12/GRIP1 lit1-tk-luc reporter, at 6.8 µM, hits give high values, % of 3 µM dafachronic acid response
row,SMILES,activation
1,O=P(Nc1nc2ccccc2s1)(c1ccccc1)c1ccccc1,inactive: 0.16%
2,O=P(Nc1nccs1)(c1ccccc1)c1ccccc1,inactive: -1.25%
3,CC(C)C(=O)NC(Sc1ccccc1)C(Cl)(Cl)Cl (stereo not given),inactive: -0.88%
4,c1nnnn1CCn1cnnn1,inactive: -1.33%
5,COC(=O)C1(C)COP(=O)(NCc2ccccc2)OC1 (stereo not given),inactive: -0.05%
6,N#C/C(=C\c1ccc(N(CCBr)CCBr)cc1)C(N)=O,inactive: -1.19%
7,CC(=O)c1ccc(N2CC2c2ccncc2)cc1 (stereo not given),inactive: -0.37%
8,C[C@@H]1C=CCP(=O)(Oc2ccccc2)O1 (stereo not given in full),inactive: -1.09%
9,C[C@H]1OP(=O)(Oc2ccccc2)C[C@@H]2O[C@@H]21 (stereo not given in full),inactive: -1.13%
10,Cc1ccccc1CN(C)C(=O)COC(=O)C(O)(c1ccccc1)c1ccccc1,inactive: -0.11%
11,CC(=O)Nc1ccc(Oc2c([N+](=O)[O-])cc([N+](=O)[O-])cc2[N+](=O)[O-])cc1,inactive: -1.84%
12,CC(=O)Nc1ccc([As](=O)(O)O)c(O)c1,inactive: -1.36%
13,CCOc1ccc(C2=NCC(CBr)S2)cc1 (stereo not given),inactive: -0.41%
14,O=P1(Nc2nc3ccc(Cl)cc3s2)COc2ccccc2O1 (stereo not given),inactive: -0.43%
15,CCc1cc(O)c([N+](=O)[O-])c(C)c1[N+](=O)[O-],inactive: -0.2%
16,CC(C)(C)C(=O)NC(Sc1ccccc1)C(Cl)(Cl)Cl (stereo not given),inactive: -1.72%
17,Cc1ccc(OP(=O)(Nc2ccccn2)Oc2ccc(C)cc2)cc1,inactive: -0.96%
18,CC(=O)NC(SC(=S)N(CC(C)C)CC(C)C)C(Cl)(Cl)Cl (stereo not given),inactive: -1%
19,COC(=O)c1cc2c(s1)N=C(c1ccccc1)N(C)P2(=O)N1CCOCC1 (stereo not given),inactive: -1.48%
20,CCC(=O)N1C2C3N(C(=O)CC)C1C1N(C(=O)CC)C(C(N1C(=O)CC)N3C(=O)CC)N2C(=O)CC,inactive: -0.11%
21,O=C(OC1CN2CCC1CC2)c1ccccc1 (stereo not given),inactive: -1.4%
22,CN(C)C(=O)Oc1noc2ccccc12,inactive: -1.52%
23,O=c1c2cc([N+](=O)[O-])ccc2[nH]c2c([N+](=O)[O-])cc([N+](=O)[O-])cc12,inactive: -1.34%
24,Cc1ccccc1OP(=O)(Nc1ccccn1)Oc1ccccc1C,inactive: -1.6%
25,CC(NC(=O)COC(=O)C(O)(c1ccccc1)c1ccccc1)c1ccccc1 (stereo not given),inactive: -1.32%

row,SMILES,activation
1,O=C(NC1CCS(=O)(=O)C1)NP(=S)(Oc1ccccc1)Oc1ccccc1 (stereo not given),inactive: -1.02%
2,CCNC(=S)/N=C(\N)N[N+](=O)[O-],inactive: -1.16%
3,Cc1ccc(NP(=O)(Oc2cccc(C)c2)Oc2cccc(C)c2)nc1,inactive: -1.86%
4,c1ccc(-c2nn[nH]n2)c(-c2nn[nH]n2)c1,inactive: -0.42%
5,O=P1(N(CCCl)CCCl)OCCC2CCCCN21 (stereo not given),inactive: -0.52%
6,CCN(N=Nc1nonc1N)c1nonc1N,inactive: -1.56%
7,CN(C(=O)Cc1ccccc1)C1CC[C@@]2(CCCO2)C[C@@H]1N1CCCC1 (stereo not given in full),inactive: -1.1%
8,Nc1cccc2ccc([As](=O)(O)O)cc12,inactive: -1.26%
9,CCCC1OP(N)(=O)OCC1CC (stereo not given),inactive: -0.7%
10,O=C(O)c1ccccc1[As](=O)(O)O,inactive: -0.22%
11,CC(=O)Nc1ccc([As](=O)(O)O)cc1,inactive: -1.23%
12,CN(C)P(=O)(N(C)C)n1c(Nc2ccccc2)nnc1-c1ccccc1,inactive: -0.77%
13,O=P(Nc1nc2ccc(Cl)cc2s1)(c1ccccc1)c1ccccc1,inactive: -1.08%
14,CN(C(=O)Cc1ccc(Cl)c(Cl)c1)[C@H]1CCCC[C@@H]1N1CCCC1,inactive: -1.09%
15,Cc1ccc(NP(=O)(Oc2ccccc2F)Oc2ccccc2F)nc1,inactive: -0.34%
16,CCOP(=O)(Nc1ccccc1)OCC,inactive: -1.08%
17,Cc1cc(SC(NC(=O)c2ccc(F)cc2)C(Cl)(Cl)Cl)ncn1 (stereo not given),inactive: -1.48%
18,CCn1c(=O)n(C2CCN(CC3CCCCCCC3)C[C@H]2CO)c2ccccc21 (stereo not given in full),inactive: -1.55%
19,CC(C)CC(=O)NC(Sc1ccc(Cl)cc1)C(Cl)(Cl)Cl (stereo not given),inactive: -0.38%
20,Nc1cc(N)c2nonc2c1[N+](=O)[O-],inactive: -1.91%
21,O=C(NC(Sc1ccncn1)C(Cl)(Cl)Cl)c1ccccc1 (stereo not given),inactive: -0.93%
22,Oc1ccccc1CNc1ccccn1,inactive: -1.31%
23,NC(=O)c1cc([N+](=O)[O-])cc([N+](=O)[O-])c1N,inactive: -1.89%
24,Cc1ccc(N/C(=N/P(=O)(N2CCOCC2)N2CCOCC2)N2CCOCC2)cc1,inactive: -0.66%
25,CN(C(=O)Cc1ccc(Cl)c(Cl)c1)[C@H]1CCCC[C@H]1N1CCCC1,inactive: -0.71%

row,SMILES,activation
1,Cc1ccc(OP(=O)(Nc2nccs2)Oc2ccc(C)cc2)cc1,inactive: -0.79%
2,COc1ccccc1OP(=O)(Nc1ccc(C)cn1)Oc1ccccc1OC,inactive: -0.71%
3,Clc1ccc(Cl)c(NC2=NCC(CBr)S2)c1 (stereo not given),inactive: -1.39%
4,CN1CCCC(OC(=O)C(c2ccccc2)c2ccccc2)C1 (stereo not given),inactive: -0.86%
5,C[N+]1=C2C=CC=CC=C2SC12C([N+](=O)[O-])=CC([N+](=O)[O-])=C[C-]2[N+](=O)[O-] (stereo not given),inactive: -3.1%
6,Nc1ccc([As](=O)(O)c2ccc(N)cc2)cc1,inactive: 0.05%
7,CCN(/C(=N/P(=O)(N1CCOCC1)N1CCOCC1)N1CCOCC1)c1ccc(OC)cc1,inactive: 0.26%
8,CN(C)C(=O)OCCc1n(C)cc[n+]1C,inactive: -0.99%
9,CC(C)=N/N=C(\N)N[N+](=O)[O-],inactive: -0.82%
10,CC(C)c1nc(Nc2ccccc2)n(P(=O)(N(C)C)N(C)C)n1,inactive: -0.86%
11,c1cc(-c2nn[nH]n2)ccc1-c1nn[nH]n1,inactive: -0.5%
12,CC1CCN(C(=O)Oc2c(Cl)cc(Cl)c3cccnc23)CC1,inactive: -0.72%
13,COc1ccc(C2=NCC(CBr)S2)cc1 (stereo not given),inactive: -0.08%
14,CC(=O)N1C2C3N(C(C)=O)C1C1N(C(C)=O)C(C(N1C(C)=O)N3C(C)=O)N2C(C)=O,inactive: -0.77%
15,O=[N+]([O-])c1cccc2n[nH]nc12,inactive: -0.31%
16,O=[N+]([O-])c1cc([N+](=O)[O-])c(CCNc2ccccc2)c([N+](=O)[O-])c1,inactive: -1.69%
17,CCc1nc2c(n1)c1c(non1O)c1c2no[n+]1[O-],inactive: -1.6%
18,Cc1ccc(NP(=O)(Oc2ccccc2)Oc2ccccc2)nc1,inactive: -1.74%
19,CC(C)(C)C(=O)NC(Sc1ccncn1)C(Cl)(Cl)Cl (stereo not given),inactive: -0.71%
20,O=[N+]([O-])c1ncn(CCn2ncnc2[N+](=O)[O-])n1,inactive: -1.32%
21,O=[N+]([O-])c1cccc(NC2=NCC(CBr)S2)c1 (stereo not given),inactive: -1.3%
22,COC(=O)C1(C)COP(=O)(Nc2ccccc2)OC1 (stereo not given),inactive: -0.35%
23,O=C(O)CNc1ccc([As](=O)(O)O)cc1,inactive: -0.78%
24,O=P1(N(CCCl)CCCl)OCCCS1 (stereo not given),inactive: -1.03%
25,O=C(Nc1cc([As](=O)(O)O)ccc1O)c1ccccc1,inactive: -0.51%
